# Measured values reported in patent US10513524B2, “PDE9 inhibitors with imidazo triazinone backbone and imidazo pyrazinone backbone for treatment of peripheral diseases” (H. LUNDBECK A/S, priority 2015, dated 2019).
# Details: male CD mice, subcutaneous 10 mg/kg
smiles,measurement,setting,value
"C[C@@H]1CN(Cc2ncccn2)C[C@H]1c1nc2c(cnn2C2CCOCC2)c(=O)[nH]1 (single isomer, unassigned) [Reference compound, reference compound]",Brain concentration after 30 minutes,30 min,500 ng/mL
same,Brain/Plasma ratio after 30 minutes,30 min,0.41 0.41
same,Brain concentration after 120 minutes,120 min,215 ng/mL
same,Brain/Plasma ratio after 120 minutes,120 min,0.41 0.41
